The record followed here is patent publication US20260384746A1, “NON-FREEZING REFRIGERATED STORAGE LIQUID FOR STEM CELLS” (published 2026).

Each structure is given as a SMILES string.

The subject of assay [1] is human iPS cells (253G1). Kind of assay: Cell viability (WST, Cell Counting Kit-8) after refrigerated storage at 4 °C and 24 h recultivation. The following applies: for Relative cell viability, mean: 4 °C, 6 days, HTMX(−)+2 mM Trolox = 1; for Relative cell viability, mean / viability as compared to 2 mM Trolox / protective effect / viability (in words): 24 h recultivation; for increase of survival after 6 days of cold storage: 6 days cold storage; for viability as compared to 2 mM Trolox / protective effect / viability (in words) / relative viability (in words): 6 days refrigerated storage; for viability as compared to 2 mM Trolox: at optimal concentration; for 80% survival period: refrigerated storage up to 6 days (FIG. 13A); for protective effect / viability (in words): versus Trolox-added group (2 mM); for relative viability (in words): 24 h recovery culture. The method, then:
(§1) A human iPS cell line (253G1) derived from a healthy individual obtained from the Center for iPS Cell Research and Application, Kyoto University, was maintained and cultured under feeder-free conditions. StemFit (registered trademark) AK02N (Ajinomoto), a commercially available clinical research medium (for human ES/iPS cells), was used for this culture, and subculture was performed at 1.5E3/cm^2 every 7 days. More details are as follows.
When the cells reached 70-80% confluence on the 7th day after the start of culture, they were enzymatically detached (using 0.5×TrypLE™ Select), dispersed, and washed. After this, the cells were suspended in fresh StemFit™ AK02N medium containing 10 μM Y27362 (FUJIFILM Wako Pure Chemical Industries, Ltd.) as a ROCK inhibitor, and iMatrix-511 (MATRIXOME, Inc.) was added as a further cell culture substrate at 0.1 g/cm^2′ and seeded at a concentration of 1.5E3/cm^2 (1.5×10^3/cm^2). The day after seeding, the medium was replaced with StemFit™ AK02N medium not containing Y27362; and thereafter the medium was replaced every 3 days, and on the 7th day, the cells were subcultured or used for experiments.
(§2) The iPS cells obtained as described above were enzymatically detached and dispersed (0.5× TrypLE (GIBCO)) at 70-80% confluence after seeding; then washed, and suspended in new StemFit™ AAK02N medium containing 10 μM Y27362 (FUJIFILM Wako); and iMatrix-511 (matrixome) was added to 0.1 g/cm^2, then seeded and cultured at a slightly lower concentration (1.0E3/cm^2) than that for maintenance culture. The next day, the medium was replaced with one not containing Y27362. […] After the storage period, the refrigerated storage liquid was removed by suction, and a specified amount of another iPS culture medium (StemFit™ AAK02) was added; and the colonies were cultured for 24 hours under 37 °C 5% CO2 conditions, and viability and cell death were measured. As controls, adopted were: the UW solution (UW) (Astellas Pharma), which is an organ preservation liquid; and HTS-FRS (HTS) (Sigma-Aldrich), which is a commercially available cell preservation liquid
The following base refrigerated storage liquid was prepared. For convenience, this storage liquid will be referred as “HTMX(−)”. This has the same composition as “HTM” described in WO2021/090869A (Patent Document 1), but instead of the UW liquid in Table 2 below, the composition of below-mentioned modified UW liquid is used and Trolox is omitted. • HTMX(−): A modified UW liquid was prepared by omitting hydroxyethyl starch from the composition of the UW solution in Table 2 below and by including 90 mM mannitol and 0.25% polyvinyl alcohol. This modified UW solution was mixed with MEM-alpha (12571-MEMalpha, nucleosides, Thermo Fisher Scientific) in a volume ratio of 2/1. The polyvinyl alcohol (PVA) used here was Merck #363146 having: a saponification degree of 99%; a weight average molecular weight Mw of 85,000-124,000; and a rotational viscosity of a 4% aqueous solution at 20 °C as being 28-32 mPa/sec (28-32 cP, 4% in H2O (20 °C) (lit.)). Gluta MAX (registered trademark, GIBCO) was added to make a 5-fold concentration (×5; 10 mM). • “Trx2.0”: 2.0 mM Trolox was added to the above base refrigerated preservation liquid (“HTMX(−)”). […] Specifically, ZVAD-FMK (Peptide Institute), Necrostatin (ChemScene), Deferoxamine (Cayman Chemicals), Ferrostatin-1 (Cayman Chemicals), Edaravone (Sigma-Aldrich), Probucol (Tokyo Chemical Industry), Trolox (Cayman Chemicals), Deferasirox (Tokyo Chemical Industry), Deferiprone (SelleckBiotech), Ebselen (Tokyo Chemical Industry), and Idebenone (Tokyo Chemical Industry) were added to the preservation liquid or to the medium at the time of recultivation, and the survival percentage and cell death percentage were measured and evaluated.
Cell viability was measured by measuring intracellular dehydrogenase activity, by colorimetry using the WST method with Cell Counting Kit-8 (Dojin Chemical). […]

Assay [2] relates to human iPS cells (253G1). The experiment in a line: Cell death (LDH activity, Cytotoxicity LDH Assay Kit-WST) after refrigerated storage and 24 h recultivation. The settings on record: for suppression of cell death after recultivation (in words): inhibitor added during 6 days refrigerated storage in HTMX(−) (FIG. 5B). The method, then: as §1, §2
The following base refrigerated storage liquid was prepared. For convenience, this storage liquid will be referred as “HTMX(−)”. […] Specifically, ZVAD-FMK (Peptide Institute), Necrostatin (ChemScene), Deferoxamine (Cayman Chemicals), Ferrostatin-1 (Cayman Chemicals), Edaravone (Sigma-Aldrich), Probucol (Tokyo Chemical Industry), Trolox (Cayman Chemicals), Deferasirox (Tokyo Chemical Industry), Deferiprone (SelleckBiotech), Ebselen (Tokyo Chemical Industry), and Idebenone (Tokyo Chemical Industry) were added to the preservation liquid or to the medium at the time of recultivation, and the survival percentage and cell death percentage were measured and evaluated.
The number of dead cells was measured by measuring lactate dehydrogenase (LDH) activity using Cytotoxicity LDH Assay Kit-WST (Dojin Chemical). […] After incubation at room temperature for 30 minutes, the absorbance at 490 nm was measured using a microplate reader; and the cell death percentage was calculated as a ratio to the positive control (total dead cells). […]

Setting [3] is: additive 1000 μM (optimal concentration) in HTMX(−).
Setting [4] is: additive 1 μM (optimal concentration) in HTMX(−).
[5] abbreviates: additive 100 μM (optimal concentration) in HTMX(−).

Take `Cc1c(O)c(=O)ccn1C`: in the assay with human iPS cells (253G1) [1] (setting [3]), the “Relative cell viability, mean” value stood at 1.56. Further, in the assay with human iPS cells (253G1) [1], the “increase of survival after 6 days of cold storage” value is “not less than 1.5 times” and the “viability as compared to 2 mM Trolox” value is “not less than 1.5 times”.
With `Cc1c(C)c2c(c(C)c1O)CCC(C)(C(=O)O)O2` (stereo not shown), the “Relative cell viability, mean” value in the assay with human iPS cells (253G1) [1] (additive 2 mM in HTMX(−)) was 1. The 80% survival period result in the assay on human iPS cells (253G1) [1] was “about 3 days”.
Turning to `O=c1c2ccccc2[se]n1-c1ccccc1`, the “Relative cell viability, mean” value in the assay with human iPS cells (253G1) [1] (setting [4]) was 0.9914. The “protective effect / viability (in words)” value with human iPS cells (253G1) [1] is reported as “high viability comparable to Trolox”.
For the molecule `CC(C)(Sc1cc(C(C)(C)C)c(O)c(C(C)(C)C)c1)Sc1cc(C(C)(C)C)c(O)c(C(C)(C)C)c1`, the “Relative cell viability, mean” value in the assay with human iPS cells (253G1) [1] (setting [3]) turned out to be 1.263. The “viability as compared to 2 mM Trolox” value in the assay with human iPS cells (253G1) [1] is on record as “about 1.2 times”.
On to `CC(=O)N(O)CCCCCNC(=O)CCC(=O)N(O)CCCCCNC(=O)CCC(=O)N(O)CCCCCN`, for which the “Relative cell viability, mean” value with human iPS cells (253G1) [1] (additive 50 μM (optimal concentration) in HTMX(−)) was 1.29. In the assay on human iPS cells (253G1) [1], the “viability as compared to 2 mM Trolox” value turned out to be 1.3 times. In the assay with human iPS cells (253G1) [2], the “suppression of cell death after recultivation (in words)” value was “suppressed cell death to almost the same extent as when Trolox was added to HTMX(−)”.
Consider `O=C(O)c1ccc(-n2nc(-c3ccccc3O)nc2-c2ccccc2O)cc1`, for which the “Relative cell viability, mean” value in the assay on human iPS cells (253G1) [1] (setting [5]) was 1.55. For the same molecule, in the assay on human iPS cells (253G1) [1], the “increase of survival after 6 days of cold storage” value was “not less than 1.5 times”, the “viability as compared to 2 mM Trolox” value is listed as “not less than 1.5 times” and the 80% survival period is given as 5 days.
For the molecule `OC[C@@H](O)[C@@H](O)[C@H](O)[C@@H](O)CO`, the “relative viability (in words)” value was “higher viability than a group of HTMX having no added chemical agents, and the value was close to that of HTMX+Trolox” with human iPS cells (253G1) [1] (60 mM in HTMX(−) diluted 4/5, HTMX without agents = 1 (FIG. 15)); “viability improved as the amount of added sorbitol increased” in the assay on human iPS cells (253G1) [1] (diluted HTMX(−) + sorbitol 60-150 mM, HTMX_Trx2K = 1 (FIG. 16A)). Also, the “cell death (in words)” value in the assay with human iPS cells (253G1) [2] (6 days refrigerated storage, 24 h recovery culture, diluted HTMX(−) + sorbitol 60-150 mM (FIG. 16B)) is “tended to decrease with increasing amounts of added sorbitol”.
For `COC1=C(OC)C(=O)C(CCCCCCCCCCO)=C(C)C1=O`, the “Relative cell viability, mean” value in the assay with human iPS cells (253G1) [1] (setting [4]) is 1.005. Besides, the “protective effect / viability (in words)” value with human iPS cells (253G1) [1] was “high viability comparable to Trolox”.
In the case of `COC(=O)C[C@H](NC(=O)[C@H](C)NC(=O)[C@@H](NC(=O)OCc1ccccc1)C(C)C)C(=O)CF`, the cell death entry in the assay with human iPS cells (253G1) [2] (6 days refrigerated storage in HTMX(−), 1 day recultivation, inhibitor added during recultivation (FIG. 5A)) is “less than 10%”. Further, the “suppression of cell death after recultivation (in words)” value in the assay with human iPS cells (253G1) [2] was “cell death after recultivation was not different from that of the control HTMX group”.
Regarding `CC1=NN(c2ccccc2)C(=O)C1`, in the assay with human iPS cells (253G1) [1] (setting [5]), the “Relative cell viability, mean” value was found to be 1.194. In the assay on human iPS cells (253G1) [1], the “viability as compared to 2 mM Trolox” value is “about 1.2 times”.
